{"source": "paper PMC9189904", "about": "“Functional Properties of Two Distinct PTH1R Mutants Associated With Either Skeletal Defects or Pseudohypoparathyroidism” (JBMR Plus, 2022)", "biological_target": "T1, PTH1R‐P132L (Homo sapiens, UniProt Q03431, P132L)", "T1 construct": "expressed in transfected cells; plasmid TG-395 in pCDNA1", "T1 sequence (Q03431 27-593 E90Y/S91D/E92V/E93P/K95Y/E96A/P132L)": "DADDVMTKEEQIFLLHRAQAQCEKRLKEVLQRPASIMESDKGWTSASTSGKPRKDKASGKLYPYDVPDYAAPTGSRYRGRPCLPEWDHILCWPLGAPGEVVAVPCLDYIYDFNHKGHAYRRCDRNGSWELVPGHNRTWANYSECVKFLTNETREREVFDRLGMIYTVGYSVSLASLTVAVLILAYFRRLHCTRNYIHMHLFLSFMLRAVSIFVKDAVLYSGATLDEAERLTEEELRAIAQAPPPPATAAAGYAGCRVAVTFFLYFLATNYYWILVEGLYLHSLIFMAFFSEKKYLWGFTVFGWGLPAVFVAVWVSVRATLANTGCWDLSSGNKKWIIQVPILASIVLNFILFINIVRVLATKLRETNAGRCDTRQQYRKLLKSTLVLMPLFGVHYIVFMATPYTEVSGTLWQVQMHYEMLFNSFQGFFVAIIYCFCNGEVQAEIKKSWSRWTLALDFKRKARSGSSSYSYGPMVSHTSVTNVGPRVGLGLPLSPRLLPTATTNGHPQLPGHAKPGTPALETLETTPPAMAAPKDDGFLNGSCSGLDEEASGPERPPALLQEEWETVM", "assay": "GloSensor cAMP signaling assay in transiently transfected GS-22a cells", "type": "cell-based", "settings": "Table 1, cAMP-dependent peak luminescence, mean ± SEM of five experiments", "protocol": "GS‐22a cells are derived from HEK293 cells (American Type Culture Collection [ATCC], Manassas, VA, USA; CRL‐1573) by stably transfection with the luciferase‐based GloSensor (Promega, San Luis Obispo, CA, USA) cAMP reporter plasmid pGloSensor‐22F. The cells were cultured in Dulbecco's modified Eagle medium (DMEM) supplemented with fetal bovine serum (10%) in a humidified incubator containing 5% CO2 and set at 37°C, and seeded into 96‐well or six‐well plates for transient DNA transfection and functional assays. […]\nPTH1R‐mediated cAMP signaling was assessed via the GloSensor cAMP reporter in GS‐22a cells in white 96‐well plates. […] For each plate, the media was replaced with CO2‐independent media (Thermo Fisher Scientific; Cat. No. 18045088) containing luciferin (0.5mM) and the plate was placed into a PerkinElmer Envision plate reader and cAMP‐dependent luminescence, as counts per second (cps), was measured at 2‐minute intervals for 15 minutes, during which time luciferin uptake occurred and luminescence reached a near steady‐state baseline. The plate was then removed from the plate reader, media (vehicle) or test ligands were added at varying concentrations, and luminescence was again measured at 2‐minute intervals for an additional 30–60 minutes. […]", "note": "pEC50: −log10 of the molar value.", "data": [{"smiles": "CC[C@H](C)[C@H](NC(=O)[C@H](CCC(=O)O)NC(=O)[C@H](CO)NC(=O)[C@@H](NC(=O)[C@@H](N)CO)C(C)C)C(=O)N[C@@H](CCC(N)=O)C(=O)N[C@@H](CC(C)C)C(=O)N[C@@H](CCSC)C(=O)N[C@@H](Cc1cnc[nH]1)C(=O)N[C@@H](CC(N)=O)C(=O)N[C@@H](CC(C)C)C(=O)NCC(=O)N[C@@H](CCCCN)C(=O)N[C@@H](Cc1cnc[nH]1)C(=O)N[C@@H](CC(C)C)C(=O)N[C@@H](CC(N)=O)C(=O)N[C@@H](CO)C(=O)N[C@@H](CCSC)C(=O)N[C@@H](CCC(=O)O)C(=O)N[C@@H](CCCNC(=N)N)C(=O)N[C@H](C(=O)N[C@@H](CCC(=O)O)C(=O)N[C@@H](Cc1c[nH]c2ccccc12)C(=O)N[C@@H](CC(C)C)C(=O)N[C@@H](CCCNC(=N)N)C(=O)N[C@@H](CCCCN)C(=O)N[C@@H](CCCCN)C(=O)N[C@@H](CC(C)C)C(=O)N[C@@H](CCC(N)=O)C(=O)N[C@@H](CC(=O)O)C(=O)N[C@H](C(=O)N[C@@H](Cc1cnc[nH]1)C(=O)N[C@@H](CC(N)=O)C(=O)N[C@@H](Cc1ccccc1)C(N)=O)C(C)C)C(C)C", "note": "[PTH(1‐34), human(h)PTH(1‐34)]", "values": [{"measurement": "pEC50", "value": 8.46}]}]}
